Measured values as given in patent US5369120A, “Pharmaceutical composition of 7-((substituted)amino-8-((substituted)carbonyl)-(methylamino)-1-oxasp iro(4,5)decanes and L-dopa” (Warner-Lambert Company, priority 1993, dated 1994).

Legend:
[1] = test system: rats rendered Parkinsonian by injection of reserpine; test: locomotor activity and rigidity in reserpine-treated Parkinsonian rats; assay type: in vivo, rat; details: reserpine (4 mg/kg) rats; Compound I 3.25 μg/kg intraperitoneal, subthreshold dose
[2] = rat paw pressure test for analgesia; details: iv
kappa opioid = kappa opioid affinity (Ki) and μ/kappa selectivity

CN(C(=O)Cc1cccc2occc12)[C@H]1CC[C@@]2(CCCO2)C[C@@H]1N1CCCC1
Locomotor scores [1]: very low locomotor scores
MPE50 in the rat paw pressure test for analgesia [2]: 0.030
μ/kappa ratio (kappa opioid): 798
